Test results published in patent US20230416268A1, “PYRIMIDINONE-CONTAINING 17-BETA-HYDROXYSTEROID DEHYDROGENASE TYPE 13 INHIBITORS” (ENANTA PHARMACEUTICALS, INC., priority 2022, published 2023).

Protein sequences, listed by entry. Tags and fused reporters are not part of them. Residues count along the entry.
UniProt Q7Z5P4, 20-300 limits assumed: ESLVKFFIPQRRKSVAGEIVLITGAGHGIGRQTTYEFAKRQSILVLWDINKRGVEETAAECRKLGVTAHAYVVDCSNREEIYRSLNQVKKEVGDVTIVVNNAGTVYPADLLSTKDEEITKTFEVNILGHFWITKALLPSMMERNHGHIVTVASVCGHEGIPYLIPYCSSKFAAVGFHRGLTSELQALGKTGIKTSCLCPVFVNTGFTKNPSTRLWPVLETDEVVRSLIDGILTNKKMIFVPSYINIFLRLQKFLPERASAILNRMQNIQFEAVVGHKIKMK

These compounds were tested against Recombinant human 17β-HSD13 (Homo sapiens (Human), UniProt Q7Z5P4) (assay: 17β-HSD13 rapid-fire mass spectrometry assay (RF/MS assay)). Settings: HSD17B13 80 nM, LTB4 10 μM, NAD+ 0.5 mM, RT 3 h, RF/MS readout.

Structure (SMILES) | IC50 [nM]
O=c1c2c(nc(CCCN3CCOCC3)n1Cc1cncs1)sc1c(O)cccc12 | 100 to 1000
COc1ccc(-c2nc3sc4c(O)cccc4c3c(=O)n2CCOC(=O)N(C)C)c(C2CC2)c1 | < 100
O=c1c2c(nc(-c3ccc(F)cc3C3CC3)n1CCn1cccn1)sc1c(O)cccc12 | 100 to 1000
COc1ccc(-c2nc3sc4c(O)cccc4c3c(=O)n2Cc2cccnc2)c(C2CC2)c1 | < 100
COc1ccc(-c2nc3sc4c(OC(=O)CC[C@@H](C)[C@H]5CC[C@H]6[C@@H]7[C@H](O)C[C@@H]8C[C@H](O)CC[C@]8(C)[C@H]7C[C@H](O)[C@]56C)cccc4c3c(=O)n2Cc2cnco2)c(C2CC2)c1 | 100 to 1000
